Molecular target: Kappa-type opioid receptor (Homo sapiens) (UniProt P41145)
Test: Displacement of [3H]Diprenorphine from human recombinant kappa opioid receptor expressed in HEK293 cells at 10 uM after 60 mins relative to control

Chains of the proteins cited; added tags and fusions are not shown.
UniProt P41145, whole entry: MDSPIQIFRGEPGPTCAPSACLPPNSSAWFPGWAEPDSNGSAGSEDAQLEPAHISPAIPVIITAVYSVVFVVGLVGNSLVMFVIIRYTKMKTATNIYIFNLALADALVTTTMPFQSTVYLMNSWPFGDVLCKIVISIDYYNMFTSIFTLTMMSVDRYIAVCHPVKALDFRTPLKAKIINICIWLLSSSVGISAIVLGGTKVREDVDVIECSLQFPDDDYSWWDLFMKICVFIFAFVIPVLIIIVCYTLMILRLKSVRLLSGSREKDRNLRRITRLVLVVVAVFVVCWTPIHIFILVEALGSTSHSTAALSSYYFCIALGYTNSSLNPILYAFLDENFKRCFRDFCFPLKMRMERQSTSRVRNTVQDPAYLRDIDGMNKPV

## CN(C(=O)Cc1ccccc1)[C@H]1C[C@]2(CCCO2)CC[C@@H]1N1CCCC1
  inhibition: 11%
